Target: MDM2 (Homo sapiens, UniProt Q00987)
Assay: LSPR competition assay: MDM2 pre-incubated with nutlin-3 or p53, then p53-GNR conjugate
Format: binding

Protein sequences, listed by entry. Tags and fused reporters are not part of them.
UniProt Q00987, whole entry, species assumed: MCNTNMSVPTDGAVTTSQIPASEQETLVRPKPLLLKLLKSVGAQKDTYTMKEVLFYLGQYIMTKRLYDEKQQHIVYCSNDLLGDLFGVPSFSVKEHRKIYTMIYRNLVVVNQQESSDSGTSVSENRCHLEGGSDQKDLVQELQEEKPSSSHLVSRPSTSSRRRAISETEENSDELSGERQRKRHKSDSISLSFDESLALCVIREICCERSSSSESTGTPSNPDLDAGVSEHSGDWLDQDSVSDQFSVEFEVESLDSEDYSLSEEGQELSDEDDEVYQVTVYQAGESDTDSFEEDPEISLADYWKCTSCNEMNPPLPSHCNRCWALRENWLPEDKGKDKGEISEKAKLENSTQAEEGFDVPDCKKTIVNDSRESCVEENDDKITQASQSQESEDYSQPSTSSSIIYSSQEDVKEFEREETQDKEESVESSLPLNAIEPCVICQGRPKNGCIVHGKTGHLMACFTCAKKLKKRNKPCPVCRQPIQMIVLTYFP

## COc1ccc(C2=N[C@@H](c3ccc(Cl)cc3)[C@@H](c3ccc(Cl)cc3)N2C(=O)N2CCNC(=O)C2)c(OC(C)C)c1 [nutlin-3]
Fixed MDM2, p53-GNR conjugate, increasing concentration of added compound (FIGS. 4A and 4B)
  ΔRU as a function of the added amount of nutlin-3 and p53: ΔRU decreases
From concentration needed for significant reduction of ΔRU (FIGS. 4A and 4B)
  relative affinity to MDM2: much higher affinity to MDM2 than p53

From patent US20170052177A1, “COMPETITION ASSAY” (PharmaDiagnostics NV, priority 2014, published 2017)
